# System: MDA-MB-231 human breast cancer cell line
structure (smiles),measurement,value
CN[C@@H](C)C(=O)N[C@H]1Cc2ccccc2[C@H]2CCC[C@@H](C(=O)NC(c3ccccc3)c3ccccc3)N2C1=O [Compound 8],times less potent than 5 in cell growth inhibition,20 times

# Source: publication PMC2662380 (Journal of medicinal chemistry, 2008)
